Values of other authors, collected in patent US20120028252A1, “HUMAN MENA ISOFORMS SERVE AS MARKERS OF EPITHELIAL TO MESENCHYMAL TRANSITION AND SENSITIVITY TO EGFR INHIBITION IN HUMAN CANCER CELLS” (priority 2008, published 2012).

System: hMena and hMena^+11a in breast cancer cell lines
Conditions: Herceptin treatment of breast cancer cell lines; cited from earlier work

In the case of “Herceptin: marketed drug whose treatment down-regulates hMena+11a expression in breast cancer cell lines”, the “hMena+11a expression” value is given as “down-regulates”.
